This is an account of results in ChEMBL document CHEMBL1132446, “Design, synthesis, and evaluation of Phe-Gly mimetics: heterocyclic building blocks for pseudopeptides” (J Med Chem, 1999).

By UniProt entry, the sequences of proteins in these tests, tags left out.
UniProt P33535, whole entry: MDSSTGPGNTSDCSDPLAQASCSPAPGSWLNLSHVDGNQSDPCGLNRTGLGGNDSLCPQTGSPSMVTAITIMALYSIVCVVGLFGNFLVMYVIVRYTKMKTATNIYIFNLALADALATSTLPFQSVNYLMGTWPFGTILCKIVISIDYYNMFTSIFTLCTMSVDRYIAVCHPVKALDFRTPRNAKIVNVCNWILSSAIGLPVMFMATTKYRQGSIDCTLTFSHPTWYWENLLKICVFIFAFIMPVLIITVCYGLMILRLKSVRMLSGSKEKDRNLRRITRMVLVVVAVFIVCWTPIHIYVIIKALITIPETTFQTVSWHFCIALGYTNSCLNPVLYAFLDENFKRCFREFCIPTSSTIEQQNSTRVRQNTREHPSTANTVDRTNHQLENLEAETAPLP

This assay addresses Mu-type opioid receptor (Rattus norvegicus, UniProt P33535). Kind of assay: The compound was tested for binding affinity towards rat Opioid receptor mu 1 by displacing [3H]DAMGO. Summed up: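 Membranes from whole rat brain minus cerebellum, prepared by sucrose homogenization, differential centrifugation and hypotonic lysis, in 50 mM Tris-HCl pH 7.4. [3H]DAMGO displaced by competitor at 25 °C for 30 min in Tris-HCl/MnCl2 buffer with bacitracin, phosphoramidon and BSA. Unlabeled DAMGO as standard. Filtration through PEI-soaked GF-C filters. Triplicates, three experiments, mean ± SEM.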

`C[C@@H](NC(=O)[C@@H](N)Cc1ccc(O)cc1)C(=O)NCC(=O)N(C)[C@@H](Cc1ccccc1)C(=O)NCCO` [DAMGO] returned an IC50 of 3.5 nM.
